## Ab-14 light chain CDR variants: yeast mating affinities

Data: MIT Lincoln Laboratory AlphaSeq set, Li et al. 2023, doi:10.1038/s41467-023-39022-2, as distributed in FLAb.

Binding partner: SARS-CoV-2 spike HR2 peptide, sequence PDVDLGDISGINAS.

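The parent was found by panning a naive human phage display library on the peptide. Designed CDR sequences, proposed from the first random library and measured here. Group labels follow the data file (Ctrl: baseline library sampled from a position-specific scoring matrix, with some repeated check sequences; Rand: our label for a block that the file lists under HC and that is probably the random mutants of the ten best first-round binders; GP: Gaussian process model; HC: hill climbing; Gen: genetic algorithm; Gibbs: Gibbs sampling; a sequence that several methods proposed may carry one label only). The assay is AlphaSeq: two haploid yeast populations carry antibody and antigen on their surface. The frequency of each diploid, read from paired DNA barcodes, reflects how well the two displayed proteins bind. Scores were corrected for input abundance and mapped to Kd with protein pairs of known affinity run in the same pool. Mating was done six times.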

Parent scFv Ab-14: VH joined to VL by the linker GGGGSGGGGSGGGGS. Changes lie in the light chain CDRs alone.
VH: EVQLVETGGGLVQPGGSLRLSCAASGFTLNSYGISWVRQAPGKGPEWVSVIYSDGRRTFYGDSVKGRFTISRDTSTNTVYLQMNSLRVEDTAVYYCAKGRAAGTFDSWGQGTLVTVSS
VL: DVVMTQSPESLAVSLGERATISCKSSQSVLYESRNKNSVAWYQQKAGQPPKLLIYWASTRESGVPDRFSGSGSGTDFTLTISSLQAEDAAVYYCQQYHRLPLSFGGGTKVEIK

Variants are written as CDR1, CDR2 and CDR3 of the light chain (limits as in the source). Parent: KSSQSVLYESRNKNSVA, WASTRES, QQYHRLPLS. This list holds designs with at most six substitutions. Values are apparent Kd, the geometric mean of the replicates that gave a signal; lower means stronger binding. A pair that was not seen in any replicate is written "nd"; this usually means weak binding, but a binder can also be missed.

CDR-L1	CDR-L2	CDR-L3	group	Kd (apparent)	seen in
KLQQSVLYESRNKNSVA	HASTRSS	QQYHRLPLS	GP_Gen	1.5 nM	6 of 6
KLSQSDLYESRNKNNVA	NASTRES	QQYHRLPLS	GP_Gen	330 pM	6 of 6
IAVQSWLYESRNKNSVA	GASTRES	QQYHRLPLI	GP_HC	14 nM	6 of 6
KLSQHVVYESRNKNSVA	NASTRLS	QQYHRLPLS	GP_Gibbs	1.1 nM	6 of 6
KFPQSVGYETRNKNSVA	EASQRES	QQYHRLPLS	GP_Gibbs	3.5 nM	6 of 6
KLEQSTLYESRNQNSVA	WASTRES	QQYHRLPLS	GP_HC	5.4 nM	6 of 6
KSSQSVLYESRNTNSVA	WASIREF	QQYHRLPLS	Ctrl	nd	0 of 6
KSLQSVLYESRDKNSVA	GASTRED	QQYHRLPLS	GP_HC	1.1 nM	6 of 6
KFSDSVLLESRTDNSVA	NASTRES	QQYHRLPLS	GP_HC	1.2 nM	6 of 6
KLRQSELYESRNKFSVA	WASTRES	QQYHRLPLS	Rand	67 nM	5 of 6
KLSQSVLYESRNKNSVA	WASTRFS	QQYHRLLLS	Ctrl	30 nM	3 of 6
KSSQSVLYESRNKNSVA	WASIRIS	QQYHRLPLS	Ctrl	270 nM	1 of 6
KSSQSGLYESRNKNSVA	SAETRES	QQYHRLPLS	Ctrl	1.9 nM	6 of 6
KWSQLVLEESRNKSSVA	NASTREE	QQYHRLPLS	GP_Gibbs	6.1 nM	6 of 6
KLSQSELYESRMKNSVA	EASTRES	QQYHRLPLS	GP_Gen	690 pM	6 of 6
KLQQQMLYESRNKNSVA	SASTREE	QQYHRLPLS	GP_HC	510 pM	6 of 6
KSSQSILYESHNFNSVA	EASTRES	QQYHRLPLS	Ctrl	1.8 nM	6 of 6
KMSQSELYESRNKNSVA	NASQRES	QQYHRLPLS	GP_Gen	1.5 nM	6 of 6
KSSQSVLYNSRNKNSVA	QASERES	QQYHRLPLD	Ctrl	210 nM	5 of 6
KALQSWLYESRNKNSVA	HASTREQ	QQYHRLPLS	GP_HC	2.1 nM	6 of 6
KSSISVLYESRNKNSVA	WASTRES	QQYHHLPLS	Ctrl	1.5 µM	3 of 6
KSYQSVLYESRNKNSIA	GASTRES	QQYHRFPLS	Ctrl	110 nM	4 of 6
KSSQSVLYESMNKNSVA	WASTRES	QQYHRLLLC	Ctrl	37 nM	1 of 6
KLSQSVLYESRMKNAVA	EASTRES	QQYHRLPLS	GP_Gen	430 pM	6 of 6
KSSQSSLYESRNENSVA	WASTRES	QQYHRLWLK	Ctrl	nd	0 of 6
KSSQSVLYESRNKNSVA	WASTRQS	QQQHRLPLS	Ctrl	78 nM	3 of 6
KSSQSDPYESRNFNSPA	WASTRES	QQYHRLPLS	Ctrl	nd	0 of 6
KLQQSVPYESRNKNSVA	SASTRES	QQYHRLPLS	GP_Gen	900 pM	6 of 6
KSSQSVLSESRNKNSVA	AASTRES	QQYHRLPSS	Ctrl	nd	0 of 6
KSYQGVLYESRVKNSVA	GASTRES	QQYHRLPLS	GP_HC	3.0 nM	6 of 6
KSSQNVLYESRNKNSVA	WGSTRES	QQYDRLPLS	Ctrl	28 nM	3 of 6
KSSQSVLMESRNANSVA	WASTRES	QQYHRLPLS	Ctrl	17 nM	6 of 6
KSSQSWDYESRNKNSVA	NASTRES	QQYHRLPLS	GP_Gen	1.0 nM	6 of 6
KSSISCLYESMNKNSVA	EASTRES	QQYHRLPLS	GP_HC	3.9 nM	6 of 6
KSSQSVLYESRNKNSLA	DASTRES	QQYHRWPLS	Ctrl	41 nM	6 of 6
KLQGSVLYESRNKNSVA	GASQREK	QQYHRLPLS	GP_Gibbs	1.0 nM	6 of 6
KMSQSALYMSRNKNSVA	WASTRES	QQCHKLPLS	Ctrl	22 nM	6 of 6
KISQSVLYESDNKNSVA	GASTRES	QQYHRLPLS	Ctrl	1.3 nM	6 of 6
RSSQSVLYESLNKNSVA	WASTRES	QQYGRLPLS	Ctrl	98 nM	6 of 6
KSSKSGLYESRNKNSVA	EASTRES	QQYHRLPLS	GP_HC	1.5 nM	6 of 6
KISQGVLYESRNKNSVA	WASTRES	QQYHRLPLS	Ctrl	15 nM	6 of 6
KLSQQVLYESRNKNSVA	NASQRLS	QCYHRLPLS	GP_Gibbs	3.8 nM	6 of 6
KLQQSVLYESRNKNSVA	NASTRED	QQYHQLPLS	GP_Gibbs	560 pM	6 of 6
KLRQSTDYESRNQNSVA	WASTRES	QQYHRLPLS	GP_HC	51 nM	3 of 6
KFSQSVLYESRTKNGVA	EASTRES	QQYHRLPLS	GP_HC	870 pM	6 of 6
KLSQSWLYESRNKNSVA	EASTRES	QQYHRLPLS	GP_Gen	570 pM	6 of 6
KSSQSWLYESRNKNRQA	GASTRES	QQYHRLPLS	Rand	nd	0 of 6
KSSQSSLYESRNKNSVA	GASTRES	LQYHRLPLS	Ctrl	77 nM	1 of 6
KASQSVLYESRNKNGVA	GANTRES	QQLHRLPLS	Ctrl	4.3 nM	6 of 6
KLPGSTLYESRQKNSVA	WASTRES	QQYHRLPLS	GP_HC	86 nM	6 of 6
KVSQSMLYESRNANSVA	NASQREE	QQYHRLPLS	GP_Gibbs	290 pM	6 of 6
KSSYSVLYESFNKNSVA	WASTRES	QQYHRLPLS	Ctrl	270 nM	4 of 6
HSSPSVCYESRNKNSVA	NASTRES	QQYHRLPLS	GP_HC	5.1 nM	6 of 6
KLSQSDLYESRNKNSVA	EASTRED	QQYHRLPLS	GP_Gen	1.0 nM	6 of 6
KSSQSVMYESRNFNSVA	WASTRES	QQYHRLPLS	Ctrl	150 nM	3 of 6
KLQQSWLYESRNKNAVA	NASQRES	QQYHRLPLS	GP_Gen	1.8 nM	6 of 6
KISQSVLYESRNKNSVA	NASTRMS	QQYHRLPLS	GP_Gen	2.6 nM	6 of 6
KLQQSELYESRNKNSVA	NASQRES	QQYHRLPLS	GP_Gen	480 pM	6 of 6
KVSQQVLYESRNKNSVA	NASTRES	QQYHRLPLS	GP_Gen	1.0 nM	6 of 6
KFSQSVLYESRTKNSVQ	NASTWES	QQYHRLPLS	Rand	nd	0 of 6
KLEQSELYESRNKNSVA	NASTRSS	QQYHRLPLS	GP_Gen	1.7 nM	6 of 6
KLENSNLYESRNGNSVA	NASTRES	QQYHRLPLS	GP_Gibbs	400 pM	6 of 6
KSSFSQLYEDRNKNSVA	SASQRES	QQYHRLPLS	GP_Gibbs	1.4 nM	6 of 6
KLSQSELYESRNKNSVA	NASKRLS	QQYHRLPLS	GP_Gen	3.5 nM	6 of 6
KLEQSTLYESRNKNSVA	WASTRLS	QQYHRLPLS	GP_HC	1.1 nM	6 of 6
KSSQSVLNESRNKNSVA	DASTRLS	QQYHRMPLS	GP_HC	3.3 nM	6 of 6
MSSPSKLRESRNKNSVA	SASTRES	QQYHRLPLS	Ctrl	12 nM	6 of 6
KLRQSTLYESRNPNSVA	QASTRES	QQYHRLPLS	GP_HC	360 pM	6 of 6
KLSESVLYESRNKNSVA	NASTRES	QQYHRLPLI	GP_Gibbs	1.4 nM	6 of 6
KQSQSVLSESRNCNSVA	DASTRES	QQYVRLPLS	GP_HC	6.1 nM	6 of 6
KSMQSMEYESRNKNSVA	EASTREL	QQYHRLPLS	GP_Gibbs	3.0 nM	6 of 6
KSSQSVLGESGTKNSVA	WASTRES	QDYTRLPLS	Ctrl	41 nM	6 of 6
KSSQSVLYESSNFNSVA	WASTRES	QQYHRLPLS	Ctrl	41 nM	5 of 6
KIGQGVLYESRNWNSVA	GASTRES	QQYHRLPLS	GP_HC	690 pM	6 of 6
KSSPSVDYESHNKNSVA	WASTRES	QQYHRLPLS	Ctrl	34 nM	6 of 6
KWSQSVLMESRNKNSVA	EASTRES	QQYHRLPLS	GP_Gen	1.5 nM	6 of 6
KSGQSVLYESRNKNSVA	WASTRES	QQYHRLPLR	Ctrl	19 nM	1 of 6

Top 11 of the variants detected in all replicates, tightest first:

| CDR-L1 | CDR-L2 | CDR-L3 | group | Kd (apparent) | seen in |
|---|---|---|---|---|---|
| KVSQSMLYESRNANSVA | NASQREE | QQYHRLPLS | GP_Gibbs | 290 pM | 6 of 6 |
| KLSQSDLYESRNKNNVA | NASTRES | QQYHRLPLS | GP_Gen | 330 pM | 6 of 6 |
| KLRQSTLYESRNPNSVA | QASTRES | QQYHRLPLS | GP_HC | 360 pM | 6 of 6 |
| KLENSNLYESRNGNSVA | NASTRES | QQYHRLPLS | GP_Gibbs | 400 pM | 6 of 6 |
| KLSQSVLYESRMKNAVA | EASTRES | QQYHRLPLS | GP_Gen | 430 pM | 6 of 6 |
| KLQQSELYESRNKNSVA | NASQRES | QQYHRLPLS | GP_Gen | 480 pM | 6 of 6 |
| KLQQQMLYESRNKNSVA | SASTREE | QQYHRLPLS | GP_HC | 510 pM | 6 of 6 |
| KLQQSVLYESRNKNSVA | NASTRED | QQYHQLPLS | GP_Gibbs | 560 pM | 6 of 6 |
| KLSQSWLYESRNKNSVA | EASTRES | QQYHRLPLS | GP_Gen | 570 pM | 6 of 6 |
| KIGQGVLYESRNWNSVA | GASTRES | QQYHRLPLS | GP_HC | 690 pM | 6 of 6 |
| KLSQSELYESRMKNSVA | EASTRES | QQYHRLPLS | GP_Gen | 690 pM | 6 of 6 |

A sequence measured in both rounds can read differently, since the two assays cover different ranges. The parent sequence was in this pool as ten entries: three were never detected, three once, and four in most replicates, with averages from 2.2 nM to 240 nM. Nonspecific signal, from three strains lacking the peptide, appeared in 4% of pairings of all light chain designs, centred on 430 nM (5% of these signals below 38 nM); values are not corrected for it. The authors averaged sequences with at least three values out of six and counted those with two or fewer as poor binders.